Assay results taken from paper PMC4413051, “Glutamate 338 is an electrostatic facilitator of C–Co bond breakage in a dynamic/electrostatic model of catalysis by ornithine aminomutase” (The Febs Journal, 2015).

Test system: NCCC[C@@H](N)C(=O)O
Experiment: purified protein
Conditions: 100 nM holo-OAM with PLP and AdoCbl, 100 nM DAPDH, 0.5 mM NAD+, 25 °C, anaerobic

## ornithine 4,5-aminomutase (OAM) (Acetoanaerobium sticklandii DSM 519; E335D)
  Km: 135.2 ± 8.2 µM
  kcat: 0.34 s⁻¹
  kcat/Km: 2500 M⁻¹ s⁻¹

## ornithine 4,5-aminomutase (OAM) (Acetoanaerobium sticklandii DSM 519; E335Q)
  Km: 148.3 ± 11.6 µM
  kcat: 0.56 s⁻¹
  kcat/Km: 3800 M⁻¹ s⁻¹
